Nrf2 block = blocks Nrf2 signaling; A549 ARE-Fluc reporter, luciferase luminescence, 18-24 h; Potency, µM (doses to about 46 µM), for inactives: at the highest dose activity change, negative = inhibition, actives largely listed as inhibitors; 2.1% of 360,000 active; also: % is scaled to controls: 0 for no effect and ±100 for the full control effect; nearly all actives have a fitted effect of over 60% in size
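Cells were seeded and rested 2 h, then exposed to compounds for 18-24 h. CellTiter-Fluor was read first as a viability measure. BugLite was added 15 min before the final luminescent read of ARE-luciferase activity in A549 cells.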
A549 viability = kills or reduces viability of A549 cells in Nrf2 counter-screen; A549 ARE-Fluc cells, CellTiter-Fluor viability, 18-24 h; Potency, µM (doses to about 46 µM), for inactives: top-dose activity change, negative = cytotoxicity, most hits filed as inhibitors; 0.16% of 390,000 active; AID 504648; also: % is scaled to controls: 0 for no effect and ±100 for the full control effect
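A549 ARE_Fluc cells in 5% FBS OPTI-MEM were exposed to compounds in concentration-response for 18-24 h at 37 deg C. Viability was read by CellTiter-Fluor fluorescence (Ex 405/Em 525) after 30 min, before the luciferase read.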
Rango dissoc inh = inhibitors of RanGTP-induced Rango-importin beta complex dissociation; O95149+P62826; Biochemical FRET Rango-importin beta, RanGTP-induced dissociation; Potency, µM (top dose mostly 46.1 µM), without a hit: top-dose activity change, negative = inhibition; 0.071% of 340,000 active; AID 540253; calls by dose curve; also: % of control where 0% means no effect; nearly all actives have a fitted effect of over 45% in size
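Compounds sat 5 min at room temperature with 0.1 uM Rango biosensor plus 0.25 uM importin beta, then FRET pre-read. RanGTP-RCC1 (0.6 uM Ran, 2mM GTP, 0.2 uM RCC1) added for 45 min, and the CFP/YFP post-read measured blocked complex dissociation.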
Nrf2 ARE act = activates Nrf2 signaling; Potency, µM (series often up to 46.1 µM), for inactives: at the top dose activation, usual class: activators; 0.31% of 410,000 active; AID 624171; AREc32 ARE-luciferase reporter (MCF7-derived line), luminescence, 24 h; also: % of control where 0% means no effect; nearly all actives have a fitted effect of over 65% in size
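Each well held 1000 AREc32 cells, which were incubated with compound for 24 hr at 37 deg C after overnight attachment, and ARE reporter activity was quantified by firefly luciferase luminescence.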
Rango complex inh = prevents formation of the Rango-importin beta complex. Rango CFP/YFP FRET sensor + importin beta, 45 min. Potency, µM (series often up to 92.2 µM), without a hit: at the top dose inhibition of complex formation. 0.031% of 340,000 active. AID 540263; calls by dose curve;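 also: 0% = DMSO wells and 100% = buffer wells lacking importin beta; nearly all actives have a fitted effect of over 15% in size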
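FRET biosensor Rango (snurportin 1 IBB between N-terminal EYFP and C-terminal Cerulean), 50 nM in PBS/1 mM DTT/0.02% Tween-20/0.1% BSA, preincubated 5 min RT with compound; 0.125 microM importin beta added, 45 min RT, CFP/YFP FRET ratio read.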
Active calls of the source: *; ? = inconclusive; · = no result. The list is not random: actives were taken first. Their share in the collection is about 2.3%. Unless noted, calls follow the shape of the dose curve; as a rule, active = well fitted curve in the direction sought with a large enough effect; inconclusive = small, poorly fitted or top-dose-only effect, or another doubt; inactive = no such curve, though single readings can be large; an effect the other way counts as inactive or inconclusive. Potency is read from the fitted curve at half-maximal effect.

SMILES | Nrf2 block | A549 viability | Rango dissoc inh | Nrf2 ARE act | Rango complex inh
O=[N+]([O-])c1cc(S(=O)(=O)Nc2ccccc2)ccc1N1CCN(c2ccccc2)CC1 | 18.4µM* | ? | 1.7% | 5.4% | 3.5%
O=[N+]([O-])c1cc(S(=O)(=O)Nc2ccccc2)ccc1Nc1ccccc1 | 25.9µM* | ? | 4.3% | 7.1% | -0.3%
O=C(OCc1ccccc1)c1ccc(NCc2cc(O)ccc2O)cc1 | 15.6% | -22.3% | 1.0% | ? | -0.1%
CC(C)OC(=O)c1ccc(NCc2cc(O)ccc2O)cc1 | 7.3% | -8.1% | -5.5% | 12.6µM* | -0.8%
CCOc1ccccc1CNC(=O)c1cc2n(n1)CCCN(Cc1ccc(C)cc1)C2=O | · | -5.2% | · | 6.7% | ·
COc1cccc(C2c3c(ncn(-c4cccc(C)c4)c3=N)Oc3ccc4ccccc4c32)c1 (centres undefined) | 3.7% | -2.3% | · | · | ·
O=S(=O)(NC1CCCC(NS(=O)(=O)c2c(F)cccc2F)C1)c1ccc2c(c1)OCCO2 (centres undefined) | 4.6% | -5.5% | · | · | ·
Cn1nc(C(=O)NCc2ccccn2)c2ccccc2c1=O | 5.8µM* | -5.3% | 2.2% | 4.7% | -2.4%
Cc1ccc(COC(=O)c2nn(C)c(=O)c3ccccc23)cc1 | 23.1µM* | -15.0% | 1.9% | 5.7% | -1.9%
CCC(C)(C)C1CCc2[nH]nc(C(=O)NCCCNC(=O)OC(C)(C)C)c2C1 (centres undefined) | 25.9µM* | -10.0% | -6.3% | -1.4% | 2.9%
Cc1cc(-c2onc3ccc(Cl)cc23)ccc1O | -16.0% | -6.3% | ? | 12.6% | ?
S=c1[nH]nc(-c2cc(-c3ccccc3)n[nH]2)n1/N=C/C(Br)=C/c1ccccc1 | 23.1µM* | ? | 15.5% | ? | 1.2%
S=c1[nH]nc(-c2cc(-c3ccccc3)n[nH]2)n1/N=C/c1ccccc1 | -9.5% | 5.2% | 6.3% | 4.4% | 4.1%
Cn1c(SCC(=O)N2CCOCC2)nc2c(c1=O)SCC2 | -4.8% | -1.4% | 9.9% | 0.0% | 1.7%
CCN1/C(=C2\C(=O)N(C)C(=S)N2C)C=Cc2ccccc21 | ? | ? | -11.8% | -0.2% | -2.7%
CCCN1C(=O)/C(=C2/C=Cc3ccccc3N2CC)SC1=S | -27.9% | 14.6µM* | 8.5% | 8.3% | -1.2%
CCN1C(=O)/C(=C2/C=Cc3ccccc3N2CC)SC1=S | 6.1% | ? | 23.1% | ? | 0.1%
CCCN1/C(=C2/SC(=S)N(CC)C2=O)C=Cc2ccccc21 | ? | 18.4µM* | -3.9% | 0.7% | -0.6%
CN1C(=O)/C(=C2/C=Cc3ccccc3N2CCCS(=O)(=O)O)SC1=S | -7.6% | 20.6µM* | 7.6% | 8.1% | ?
CCOC(=O)c1c(C)n(-c2ccccc2)c2ccc(OC(=O)c3cccc(OC)c3OC)cc12 | 9.3% | 1.9% | · | 5.6% | ·
CSc1ncc(Cl)c(C(=O)Nc2cc(C(F)(F)F)ccc2Cl)n1 | 25.6% | -5.0% | · | 12.1% | ·
Cc1c(Br)c([N+](=O)[O-])nn1CC(=O)NCCc1c[nH]c2ccccc12 | -5.5% | -0.2% | 4.0% | -0.2% | -3.4%
Cc1ccc(SCc2nc(-c3ccc(C(=O)NCc4ccc(Cl)cc4)cc3)oc2C)cc1 | 27.4% | -16.1% | · | 0.2% | ·
CN1/C(=C\C=C2/SC(=S)N(CC(=O)O)C2=O)C(C)(C)c2ccccc21 | 4.11µM* | 9.2µM* | ? | 1.1% | 23.1µM*
C=CCN1C(=O)/C(=C\C=C2\N(C)c3ccccc3C2(C)C)SC1=S | -11.6% | ? | -8.5% | -0.3% | 9.4%

Single records (already shown):
`O=C(OCc1ccccc1)c1ccc(NCc2cc(O)ccc2O)cc1` in the list: Nrf2 block: 15.6%; A549 viability: -22.3%; Rango dissoc inh: 1.0%; Nrf2 ARE act: ?; Rango complex inh: -0.1%
`COc1cccc(C2c3c(ncn(-c4cccc(C)c4)c3=N)Oc3ccc4ccccc4c32)c1` (centres undefined) in the list: Nrf2 block: 3.7%; A549 viability: -2.3%; Rango dissoc inh: ·; Nrf2 ARE act: ·; Rango complex inh: ·

Continued:
SMILES | Nrf2 block | A549 viability | Rango dissoc inh | Nrf2 ARE act | Rango complex inh
CN1CCS/C1=C\C=C1/SC(=S)N(CC(=O)O)C1=O | -14.4% | -12.4% | ? | 0.0% | 58µM*
Cc1cc(C(=O)N2CCN(c3cc(Cl)ccc3C)CC2)c2c(C)nn(-c3ccccc3)c2n1 | -29.0% | -1.2% | · | 0.0% | ·
CCc1ccc(/C=C/c2c[nH]c3ccccc23)[n+](CC)c1 | 6.51µM* | ? | ? | 7.2% | ?
CCOc1ccc(N(CC)C(=O)c2cc3c(s2)-c2ccccc2OC3)cc1 | ? | 5.1% | · | -0.5% | ·
Cc1nc(SCC(=O)Nc2nc3ccccc3s2)c(C#N)c(C)c1C | 4.61µM* | 14.3% | ? | -2.4% | ?
Cc1nc(SCC(=O)Nc2nccs2)c(C#N)c(C)c1C | -11.4% | 0.0% | 25.9µM* | -2.5% | ?

3 successive compounds from above, for reference:
SMILES | Nrf2 block | A549 viability | Rango dissoc inh | Nrf2 ARE act | Rango complex inh
CCc1ccc(/C=C/c2c[nH]c3ccccc23)[n+](CC)c1 | 6.51µM* | ? | ? | 7.2% | ?
CCOc1ccc(N(CC)C(=O)c2cc3c(s2)-c2ccccc2OC3)cc1 | ? | 5.1% | · | -0.5% | ·
Cc1nc(SCC(=O)Nc2nc3ccccc3s2)c(C#N)c(C)c1C | 4.61µM* | 14.3% | ? | -2.4% | ?

Screening data as filed in PubChem.
